# Measured affinities in a library of Ab-14 heavy chain variants

The measurements come from Li et al. 2023 (doi:10.1038/s41467-023-39022-2) through the FLAb antibody collection.

All variants were tested on one target, the spike HR2 peptide PDVDLGDISGINAS (SARS-CoV-2).

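This is the validation round: designs drawn from the data on random variants, tested in the same kind of assay. Their group label is 14H_Rand (Rand: our label for a block that the file lists under HC and that is probably the random mutants of the ten best first-round binders). In AlphaSeq, yeast of one mating type display the scFv and yeast of the other type display the target. The frequency of each diploid, read from paired DNA barcodes, reflects how well the two displayed proteins bind. Scores were corrected for input abundance and mapped to Kd with protein pairs of known affinity run in the same pool. Mating was done six times.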

Each scFv is VH, three GGGGS repeats, VL, as in the parent Ab-14, and differs from it in the CDRs of the heavy chain only.
VH: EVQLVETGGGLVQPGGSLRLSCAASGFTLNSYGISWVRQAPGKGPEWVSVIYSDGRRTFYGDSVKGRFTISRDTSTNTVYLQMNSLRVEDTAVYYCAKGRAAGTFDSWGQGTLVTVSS
VL: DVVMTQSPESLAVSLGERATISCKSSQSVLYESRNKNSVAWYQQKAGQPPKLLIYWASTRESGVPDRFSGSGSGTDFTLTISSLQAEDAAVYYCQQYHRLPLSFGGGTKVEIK

Positions count from residue 1 of the parent VH; S31D puts D in place of S. Scale: log10 of Kd in nM, estimated from mating counts; low values are strong binders. Replicates are averaged; those with no signal do not enter the mean. Where no diploid with the target was found in that replicate, the entry reads "nd": below detection, most likely a poor binder, though not proof of it.

changes,log10 Kd (nM) by replicate,mean log10 Kd (nM),signal with controls
S31D/Y32P/I51P/F59Q/G61I/T104L,nd nd nd nd nd nd,nd,0 of 18
N30D/G33K/Y52V/F105A/D106L,nd nd nd nd nd nd,nd,0 of 18
L29H/N30D/F105A/D106I,nd nd nd nd nd nd,nd,2 of 18 (0.83)
I51F/G61H/S63Y/R100Q/A101L/T104N,nd nd nd nd nd nd,nd,0 of 18
F27I/S31E/G61T/V64L/A101F/S107E,nd nd nd nd nd nd,nd,0 of 18
L29Y/S31T/F59Q/G61I/A101Q,nd nd nd nd nd nd,nd,0 of 18
S31D/S35V/G103L/D106I,nd nd nd nd nd nd,nd,0 of 18
T28D/N30E/T104W/D106N,0.67 -0.02 0.28 0.82 1.01 0.60,0.56,0 of 18
G26K/S31D/G103L/D106I/S107Q,nd nd nd nd nd nd,nd,0 of 18
I34C/G61S/S63A/A102G,nd nd nd nd nd nd,nd,0 of 18
T28D/I34A/F59A/T104W/D106N,nd nd nd nd 2.73 nd,2.73,1 of 18 (1.51)
F27Q/G33Y/G61D/R100Q/A101L,nd nd nd nd nd nd,nd,0 of 18
T28V/S31D/I51L/G103L/T104D/D106I,nd nd 1.65 nd nd nd,1.65,1 of 18 (2.21)
F27Y/S31Q/T58P/G61S/T104F,nd nd nd nd 1.67 nd,1.67,0 of 18
D54E/G61S/S63L/A101F/A102G,nd nd nd nd nd nd,nd,0 of 18
T28D/S35C/F59Y/T104W/D106N,nd nd nd nd nd nd,nd,0 of 18
N30D/S31F/F105A/D106L,nd nd nd 2.43 nd 2.27,2.35,0 of 18
N30C/S31E/G55L/Y60P/G61T/A101F,nd nd nd nd nd nd,nd,0 of 18
N30D/G33R/G55N/F105A/D106L,nd nd nd nd nd nd,nd,0 of 18
S31E/T58P/G61T/D62N/A101F,nd nd nd nd nd nd,nd,0 of 18
F27V/T28D/S53G/T58C/R100K/T104W/D106N,nd nd nd nd nd nd,nd,0 of 18
L29G/S31D/F59Q/Y60R/G61I/F105R,nd nd nd nd nd nd,nd,0 of 18
G33C/G55W/Y60G/G61D/R100Q/A101L,nd nd nd nd nd nd,nd,0 of 18
S31D/F59Q/G61I/V64M/F105K,nd nd nd nd nd nd,nd,1 of 18 (1.83)
S31D/I34L/V64A/G99S/G103L/D106I,nd nd nd nd nd nd,nd,0 of 18
F59K/G61D/R100Q/A101L,nd nd nd nd nd nd,nd,0 of 18
T28D/D54L/G61F/T104W/D106N,nd nd nd nd nd nd,nd,0 of 18
T28D/L29I/T104W/D106N,nd nd nd nd nd nd,nd,0 of 18
N30D/S63H/F105A/D106L,nd nd nd nd nd nd,nd,0 of 18
T28D/S63E/G103A/T104W/D106N/S107Y,nd nd nd nd nd nd,nd,0 of 18
S31E/S35Q/G103V/S107Q,nd nd nd nd nd nd,nd,0 of 18
S31W/G103F/S107Q,nd nd nd nd nd nd,nd,0 of 18
S31Q/F59C/G61S/T104F,nd nd nd nd nd nd,nd,0 of 18
L29D/S31D/G103L/D106I/S107G,nd nd nd nd nd nd,nd,0 of 18
D62S/A102G,nd nd nd nd nd nd,nd,0 of 18
N30T/S31E/G61T/A101F,0.90 0.86 0.69 0.92 0.55 0.82,0.79,1 of 18 (1.34)
G55F/G61D/R100Q/A101L,nd nd nd nd nd nd,nd,0 of 18

The opening 4 entries, copied out:

changes,log10 Kd (nM) by replicate,mean log10 Kd (nM),signal with controls
S31D/Y32P/I51P/F59Q/G61I/T104L,nd nd nd nd nd nd,nd,0 of 18
N30D/G33K/Y52V/F105A/D106L,nd nd nd nd nd nd,nd,0 of 18
L29H/N30D/F105A/D106I,nd nd nd nd nd nd,nd,2 of 18 (0.83)
I51F/G61H/S63Y/R100Q/A101L/T104N,nd nd nd nd nd nd,nd,0 of 18

As a blank, each scFv also met three strains without target: over all heavy chain designs, 1% of these pairings were detected, typically at 2.08 and seldom below 0.84. For each scFv, signals with the empty controls are counted beside the result, with their mean in brackets. The authors' rule: three or more of the six replicates give a measured affinity, fewer mean a poor binder. Values of this round are not directly comparable with the first-round values of the same sequences.